{"source": "patent US7809428B2", "about": "“Devices for detection and therapy of atheromatous plaque” (The General Hospital Corporation, priority 2001, dated 2010)", "tested_on": "balloon-injured abdominal aorta plaque", "experiment": "In vivo photodynamic therapy of rabbit aorta through flowing blood", "conditions": "injected 24 hours before light, approximately 665 nm, approximately 100 J/cm", "data": [{"substance": "Mal-BSA-ce6", "values": [{"measurement": "short-term toxicity of PDT in living rabbits", "value": "no short-term toxicity"}]}]}
